Experimental findings from ChEMBL document CHEMBL3627700, “Discovery of novel N-aryl piperazine CXCR4 antagonists” (Bioorg Med Chem Lett, 2015) are described below.

For series [1], the system named is Human immunodeficiency virus 1. Briefly: Antiviral activity against HIV1 3B assessed as inhibition of viral attachment to human MAGI cells. The class given is functional, organism-based. The note with it: Human immunodeficiency virus 1, 3B.
Series [2] in a line: Selectivity ratio of IC50 for CXCR4 in human Chem-1 cells to IC50 for HIV1 3B assessed as inhibition of viral attachment to human MAGI cells. The class given is cell-based.

One may read the IC50 as the concentration at which inhibition is half-maximal.

SMILES strings stand for the structures.

With `NCCCCN(C[C@H]1CN(Cc2ccccc2)CCN1)[C@H]1CCCc2cccnc21`, the IC50 in series [1] was found to be 150 nM.
Regarding `NCCCCN(C[C@@H]1CN(Cc2ccccc2)CCN1)[C@H]1CCCc2cccnc21`, the concentration for half-maximal inhibition (IC50) in series [1] was determined as 30 nM. Moreover, the “Ratio IC50” value in series [2] stood at 6.
